## Yeast mating assay 1: variants of the scFv Ab-14

Data: MIT Lincoln Laboratory AlphaSeq set, Engelhart et al. 2022, doi:10.1038/s41597-022-01779-4, as distributed in FLAb.

All variants were tested on one target, the spike HR2 peptide PDVDLGDISGINAS (SARS-CoV-2).

Each scFv is VH, three GGGGS repeats, VL, as in the parent Ab-14, and differs from it in the CDRs of the heavy chain only.
VH: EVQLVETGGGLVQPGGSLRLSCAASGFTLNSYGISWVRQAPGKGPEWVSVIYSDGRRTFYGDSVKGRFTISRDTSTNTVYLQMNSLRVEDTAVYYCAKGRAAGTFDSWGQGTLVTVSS
VL: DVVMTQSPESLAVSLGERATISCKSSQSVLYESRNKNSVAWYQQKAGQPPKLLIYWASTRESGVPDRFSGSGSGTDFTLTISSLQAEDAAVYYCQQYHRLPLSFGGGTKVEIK

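Phage display of a naive human antibody library on the peptide gave the parent. Variants in AAYL49 differ from the parent at up to three CDR positions; double and triple changes were sampled at random. AlphaSeq pools MATa yeast showing the antibodies with MATalpha yeast showing the peptide. The frequency of each diploid, read from paired DNA barcodes, reflects how well the two displayed proteins bind. Each replicate has its own calibration line, from reference interactions of the BCL2 family. Each pool was mated in three replicate cultures.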

The parent's heavy chain CDRs are GFTLNSYGIS, VIYSDGRRTFYGDSVK, GRAAGTFDS; each variant's own CDRs replace them letter for letter.
Affinities are written as log10 Kd with Kd in nM; a lower number is a better binder.
Averages over replicates are reported, and they cover detected replicates only.
"not detected" means that the variant was in the library but no mating with the target was seen in any replicate; the authors take this as a sign of poor binding, and no number exists.
Empty control strains, which show no peptide, gave a signal in 15% of pairings with library AAYL49; the median was 4.06 and 95% of these signals were weaker than 2.83. No background was subtracted.
Parent in this assay: reference entry 0.65, copy in this library 4.11 (one replicate of three).

CDR-H1	CDR-H2	CDR-H3	mean log10 Kd (nM)	detected
GFTLNSYGIS	VIYSDGRRTFYGHSGC	GRAAGTFDS	not detected	0 of 3
GFTLNSYIIS	VIYSDGRRTFYGDSVK	GRAAGTFDN	4.68	1 of 3
GFKLFSYGIS	VIYSDGRRTFYGDSVK	GRAAGTFDS	2.80	3 of 3
GFTLNSYVIS	VIQSDGIRTFYGDSVK	GRAAGTFDS	4.18	1 of 3
GFTLNSYGIS	VIYCDGGRTFYGDSVK	IRAAGTFDS	4.79	1 of 3
GFTLNSYGIS	VIYNDGDRTFYGDQVK	GRAAGTFDS	not detected	0 of 3
GFTYNSYGSS	VIYSDGRRTFYGDSVK	GRAAGTFWS	4.33	2 of 3
GFTLNSYGIS	VSYSDGRRTFYGDSVK	LRAAGTNDS	3.28	1 of 3
GFTLKSYGIS	VIYSDGRRTFYGDSVK	GRAAGCTDS	not detected	0 of 3
GFTLNSYGIK	VIYSDGRRTFYADSVK	GNAAGTFDS	2.59	1 of 3
GFTLNSYSIS	VIYSDGGRTFYGDSVK	GRAAGTFDS	not detected	0 of 3
GFTLNHNGIS	VIYSDGRRTRYGDSVK	GRAAGTFDS	4.27	2 of 3
GFTANSYGIS	VIYSDPRRTFYTDSVK	GRAAGTFDS	4.67	3 of 3
SFCLNSYGIS	VIYSDGRRTFYGTSVK	GRAAGTFDS	not detected	0 of 3
GFTLNSYGIS	VIYSDGRRIFYGDSVK	GRAAGTFDF	2.22	3 of 3
GFTLNSYGIS	VIYSDGRRTFYCDSVK	GRAQGTFDM	1.03	3 of 3
GFWLNSYGIS	VIYSDGRRTEAGDSVK	GRAAGTFDS	not detected	0 of 3
GFTLNSYGIS	VIYDDYRRTFYGDSVK	GRAAGTFDE	not detected	0 of 3
GFTLNSYGIS	VINSDGRRTFEGDIVK	GRAAGTFDS	3.41	1 of 3
GFPLNSYGIS	VIYSDGRRTFYGDSVK	GNAAGTFDS	0.82	3 of 3
PFTLGSYGIS	VIYSDGRRTFYGDSVK	GPAAGTFDS	4.32	2 of 3
GFTLNSYGIS	VIYSDTRRTFYGDSVK	GRAAGTFEM	not detected	0 of 3
RFTLNSYGIS	VTYSDRRRTFYGDSVK	GRAAGTFDS	not detected	0 of 3
GFTLNSPGIS	YIYSDKRRTFYGDSVK	GRAAGTFDS	3.79	1 of 3
GFTLNSYGIS	VIYSDGRRTFYGDSYK	GRAKGTFDS	1.09	3 of 3
GFTLNSYGIS	VIYSDGRRTFYRDSDK	GRAAGTFSS	not detected	0 of 3
GPTLNSYGIS	VIYSDGRRDFYGDSVK	GRAAGTFDS	3.29	1 of 3
GFTLNSVGIS	VIYSDGRRTFYGDSFK	GRWAGTFDS	2.91	3 of 3
GFTLNSYGIS	VITSDGRRYFYGDSVK	GRAAGTIDS	not detected	0 of 3
GFTLNSYGFS	VIYSDGRRTFYGDSVK	GRAAMTFDN	not detected	0 of 3
GFTLASYGIS	VIYSDGYRTFYGDSVK	GRAFGTFDS	3.52	2 of 3
GFTLNSQGIS	VPYSDGRRTFYGDSVK	GRAAGTFDT	4.49	3 of 3
IFTLNFYGIS	VIYSDGRRTFYGDSVK	GRANGTFDS	4.56	1 of 3
GFTLWSYQIS	VIYSDGRRTFYKDSVK	GRAAGTFDS	not detected	0 of 3
GFTLNSYGIS	VDYSDGRRTFYGDSVK	GRAKGPFDS	2.51	1 of 3
GFTLNSPGIS	WIYSDGRRTFYIDSVK	GRAAGTFDS	not detected	0 of 3
GLTLNSYGIS	VIYSDGRRTFYSDSVK	GRAKGTFDS	not detected	0 of 3
YMTLNSYCIS	VIYSDGRRTFYGDSVK	GRAAGTFDS	not detected	0 of 3

Further variants, results first:

mean log10 Kd (nM)	detected	CDR-H1	CDR-H2	CDR-H3
4.08	2 of 3	GFTLNSIGIS	VIYIDGRRVFYGDSVK	GRAAGTFDS
not detected	0 of 3	GFTWNSYGIS	VIYSDGRRTFEGDSVK	GRAAGTFKS
not detected	0 of 3	RFTLNSYGIS	VIFSDGRRTFYCDSVK	GRAAGTFDS
2.33	3 of 3	GFTVNSYGIS	VIYSDGRRTFYIDSVK	GRAAGTIDS
5.03	1 of 3	GFTLNSHGIY	VIYSDGRRTFYGDSVK	GIAAGTFDS
not detected	0 of 3	GFTLNCYGIS	VIYSDMRRTFLGDSVK	GRAAGTFDS
not detected	0 of 3	GFTLNSYQIS	VIYSDGRRTFYGDSMK	GRAAGTFAS
not detected	0 of 3	GFTLNEYGIS	VIYMDGRMTFYGDSVK	GRAAGTFDS
not detected	0 of 3	GFTLNSYGIP	VIYSDGRRTFYGDSVK	GRAAGTIDA
not detected	0 of 3	GFTLNSYGIS	VIQSNGRRTFYGDSVC	GRAAGTFDS
5.06	2 of 3	GFTLNSYGIC	VIYSCGRRTFYGDSVK	GRAAGTFDL
not detected	0 of 3	GFTLNSYGAS	VIYSDGRRTFYGDSQK	GRAQGTFDS
not detected	0 of 3	GFTLNSYGIN	VIYSDGRRTFYGDSVI	DRAAGTFDS
not detected	0 of 3	GFTLNSYGIS	VIVSDGRRTFYGDSYK	GNAAGTFDS
3.99	1 of 3	GFTLNSYGIS	VITSDGRRTFYGDSVK	TRAAGTFDQ
not detected	0 of 3	GFTLNSYGIS	VIYSDGRRTFYGDWGK	GRAAGTFFS
not detected	0 of 3	GFFLNSYGIS	VIYSDGRRTFYGVSVK	GRAAGTFDC
3.21	1 of 3	GFTLNSYGIS	RIYSDGRRTFYGDSVK	GTAQGTFDS
3.38	1 of 3	KFTLNSYGIS	VITSDGRRTFYGDSMK	GRAAGTFDS
0.87	3 of 3	GFTLNSYGIS	VIYSDGRRTFYADSVK	GRADGTFQS
not detected	0 of 3	KFTLNSYGIS	VIYSDGRRTFYTDSVK	GRAAGAFDS
4.22	2 of 3	GFTLNSYGIS	VIYSDGRRTFYQDSVK	GRAAMTFDS
not detected	0 of 3	GFTLNSYGIS	VIYSDGRRTFYGMSVK	GRAAGTEAS
3.96	3 of 3	GFTLNKYGIS	VIYSDGRRTVYGDHVK	GRAAGTFDS
not detected	0 of 3	GFFLNSYGIS	VIYSDGRRTFYTDSVK	GRAAGTSDS
not detected	0 of 3	GFTLNSYGIS	VIYSSGRRTFIGDSVK	GRAAGVFDS
not detected	0 of 3	GFTLNSPGIS	VIYSDGRRTFYGTSVK	HRAAGTFDS
4.34	1 of 3	GNTLNSYGIS	VNYSDGRRTMYGDSVK	GRAAGTFDS
4.20	3 of 3	GFTLNSYGIS	IIYSDGRRTFYGFSVK	GRIAGTFDS
4.02	1 of 3	GFTLNSYGIS	FMYSDGRRTFYGDSVF	GRAAGTFDS
5.47	2 of 3	GFTLNSYGIS	LIYSDGRRPFWGDSVK	GRAAGTFDS
3.94	1 of 3	GFTKNSYGIS	VIYSDGRFTFYGDSVK	GRAAGTFDS
2.33	3 of 3	GFTLNSYGIS	VIYSDGRRTAYGDSEK	GRAAGCFDS
1.97	3 of 3	GFTLNSYGIS	VIASDGRRTGYRDSVK	GRAAGTFDS
4.29	1 of 3	GFTLNSLGSS	VIESDGRRTFYGDSVK	GRAAGTFDS
4.44	2 of 3	GFTLNSYLIS	VIYSDSRRTFYGDSVN	GRAAGTFDS
4.85	2 of 3	GFTLNSYGIS	VIYSDGRRTFYGDSVK	GWAAQTFDS
4.28	2 of 3	GFTLNSIGIS	VIYSDGCRTFYLDSVK	GRAAGTFDS
4.09	2 of 3	GFTLNSYGIS	VIYSDGRRTFYRTSVK	GRAAGTFDS

11 of these entries, quoted again:

CDR-H1	CDR-H2	CDR-H3	mean log10 Kd (nM)	detected
YMTLNSYCIS	VIYSDGRRTFYGDSVK	GRAAGTFDS	not detected	0 of 3
GFTLNSYGIN	VIYSDGRRTFYGDSVI	DRAAGTFDS	not detected	0 of 3
GFTANSYGIS	VIYSDPRRTFYTDSVK	GRAAGTFDS	4.67	3 of 3
GFWLNSYGIS	VIYSDGRRTEAGDSVK	GRAAGTFDS	not detected	0 of 3
GFTLNSYGIS	RIYSDGRRTFYGDSVK	GTAQGTFDS	3.21	1 of 3
GFTLNSYGIS	VIVSDGRRTFYGDSYK	GNAAGTFDS	not detected	0 of 3
GFTLNSQGIS	VPYSDGRRTFYGDSVK	GRAAGTFDT	4.49	3 of 3
GFTLNSYGIS	VIYSDGRRTFYADSVK	GRADGTFQS	0.87	3 of 3
GFTKNSYGIS	VIYSDGRFTFYGDSVK	GRAAGTFDS	3.94	1 of 3
GFTLNSHGIY	VIYSDGRRTFYGDSVK	GIAAGTFDS	5.03	1 of 3
GFFLNSYGIS	VIYSDGRRTFYGVSVK	GRAAGTFDC	not detected	0 of 3